The values that follow come from patent publication US11981959B2, “Methods and compositions for diagnosing and treating, germline mismatch repair deficiencies, lynch syndrome and assessing germline risks of cancer” (dated 2024).

SMILES strings stand for the structures. A value given as a limit tells only on which side of the number the result lay.

The test system of data set [1] is LCL cells from Group 3. The data set is described as follows: MNNG dose response, cell survival by trypan blue staining.
Data set [2] has as its system MMR pathway in Group 1 and Group 3 LCLs. The data set is described as follows: Risk classification score combining MLH1, MSH2 and ATR FVAs (flow cytometry) after mismatch-inducing agent. In general terms: Flow cytometry measures light scatter and fluorescence of single cells or particles in a stream.

Consider `CN(N=O)C(=N)N[N+](=O)[O-]`, for which the “MNNG concentration that did not significantly increase cell death compared to untreated control” value in data set [1] (24 hours, Group 3 LCLs, n=3) is at most 50 µM. The “MNNG concentration showing significant toxicity (survival counts, trypan blue)” value in data set [1] (LCL cells from Group 3, n=3) was above 50 µM. Also, the “Optimal concentration for MMR induction” value in data set [2] is “about 50 μM”.
